Molecular target: human JAK1 (a.a. 837-1142)
Experiment: In vitro JAK kinase assay (HTRF, phosphorylation of a biotinylated peptide), JAK1
Type: biochemical
Details: measured at 1 mM ATP
Experimental: Compounds herein were tested for inhibitory activity of JAK targets according to the following in vitro assay described in Park et al., Analytical Biochemistry 1999, 269, 94-104. The catalytic domains of human JAK1 (a.a. 837-1142), Jak2 (a.a. 828-1132) and Jak3 (a.a. 781-1124) with an N-terminal His tag were expressed using baculovirus in insect cells and purified. The catalytic activity of JAK1, JAK2 or JAK3 was assayed by measuring the phosphorylation of a biotinylated peptide. The phosphorylated peptide was detected by homogenous time resolved fluorescence (HTRF). […] Reactions were carried out at room temperature for 1 hr and then stopped with 20 μL 45 mM EDTA, 300 nM SA-APC, 6 nM Eu-Py20 in assay buffer (Perkin Elmer, Boston, Mass.). Binding to the Europium labeled antibody took place for 40 minutes and HTRF signal was measured on a Fusion plate reader (Perkin Elmer, Boston, Mass.).

| Structure (SMILES) | IC50 Ratio JAK2/JAK1 |
| --- | --- |
| N#CCC1(n2cc(-c3ncnc4[nH]ccc34)cn2)CN(C2CC3CCC(C2)N3C(=O)C2CCC(F)(F)CC2)C1 (stereo not drawn) [Example 148, {1-{8-[(4,4-difluorocyclohexyl)carbonyl]-8-azabicyclo[3.2.1]oct-3-yl}-3-[4-(7H-pyrrolo[2,3-d]pyrimidin-4-yl)-1H-pyrazol-1-yl]azetidin-3-yl}acetonitrile] | 5.7 |
| N#CCC1(n2cc(-c3ncnc4[nH]ccc34)cn2)CN(C2CC3CCC(C2)N3C(=O)C2CCCC2)C1 (stereo not drawn) [Example 145, {1-[8-(cyclopentylcarbonyl)-8-azabicyclo[3.2.1]oct-3-yl]-3-[4-(7H-pyrrolo[2,3-d]pyrimidin-4-yl)-1H-pyrazol-1-yl]azetidin-3-yl}acetonitrile] | 3.6 |
| Cc1csc(C(=O)N2CCC(N3CC(CC#N)(n4cc(-c5ncnc6[nH]ccc56)cn4)C3)CC2)c1 [Example 79, {1-{1-[(4-methyl-2-thienyl)carbonyl]piperidin-4-yl}-3-[4-(7H-pyrrolo[2,3-d]pyrimidin-4-yl)-1H-pyrazol-1-yl]azetidin-3-yl}acetonitrile] | 3.9 |
| N#CCC1(n2cc(-c3ncnc4[nH]ccc34)cn2)CN(C2CC3CCC(C2)N3C(=O)c2ccnc(C(F)(F)F)c2)C1 (stereo not drawn) [Example 144, (3-[4-(7H-pyrrolo[2,3-d]pyrimidin-4-yl)-1H-pyrazol-1-yl]-1-{8-[2-(trifluoromethyl)isonicotinoyl]-8-azabicyclo[3.2.1]oct-3-yl}azetidin-3-yl)acetonitrile] | 3.9 |
| N#CCC1(n2cc(-c3ncnc4[nH]ccc34)cn2)CN(C2CC3CCC(C2)N3C(=O)C2CCCCC2)C1 (stereo not drawn) [Example 147, {1-[8-(cyclohexylcarbonyl)-8-azabicyclo[3.2.1]oct-3-yl]-3-[4-(7H-pyrrolo[2,3-d]pyrimidin-4-yl)-1H-pyrazol-1-yl]azetidin-3-yl}acetonitrile] | 6.1 |
| N#CCC1(n2cc(-c3ncnc4[nH]ccc34)cn2)CN(C2CCN(C(=O)c3cccc(Cl)c3)CC2)C1 [Example 19, {1-[1-(3-chlorobenzoyl)piperidin-4-yl]-3-[4-(7H-pyrrolo[2,3-d]pyrimidin-4-yl)-1H-pyrazol-1-yl]azetidin-3-yl}acetonitrile] | 3.8 |
| N#CCC1(n2cc(-c3ncnc4[nH]ccc34)cn2)CN(C2CCN(C(=O)c3ccc(C#N)c(F)c3)CC2)C1 [Example 66, 4-[(4-{3-(cyanomethyl)-3-[4-(7H-pyrrolo[2,3-d]pyrimidin-4-yl)-1H-pyrazol-1-yl]azetidin-1-yl}piperidin-1-yl)carbonyl]-2-fluorobenzonitrile] | 6.2 |
| Cc1ccc(C#N)c(N2CCC(C(=O)N3CCC(N4CC(CC#N)(n5cc(-c6ncnc7[nH]ccc67)cn5)C4)CC3)CC2)n1 [Example 108, 2-{4-[(4-{3-(cyanomethyl)-3-[4-(7H-pyrrolo[2,3-d]pyrimidin-4-yl)-1H-pyrazol-1-yl]azetidin-1-yl}piperidin-1-yl)carbonyl]piperidin-1-yl}-6-methylnicotinonitrile] | 1.4 |
| N#CCC1(n2cc(-c3ncnc4[nH]ccc34)cn2)CN(C2CCN(C(=O)Nc3ccc(F)cc3C(F)(F)F)CC2)C1 [Example 154, 4-{3-(Cyanomethyl)-3-[4-(7H-pyrrolo[2,3-d]pyrimidin-4-yl)-1H-pyrazol-1-yl]azetidin-1-yl}-N-[4-fluoro-2-(trifluoromethyl)phenyl]piperidine-1-carboxamide] | 22.0 |
| COc1cc(C(F)(F)F)sc1C(=O)N1CCC(N2CC(CC#N)(n3cc(-c4ncnc5[nH]ccc45)cn3)C2)CC1 [Example 70, {1-{1-[3-methoxy-5-(trifluoromethyl)-2-thienylcarbonyl]piperidin-4-yl}-3-[4-(7H-pyrrolo[2,3-d]pyrimidin-4-yl)-1H-pyrazol-1-yl]azetidin-3-yl}acetonitrile] | 3.8 |
| N#CCC1(n2cc(-c3ncnc4[nH]ccc34)cn2)CN(C2CCN(C(=O)c3ccc(-c4nccs4)c(F)c3)CC2)C1 [Example 122, {1-{1-[3-fluoro-4-(1,3-thiazol-2-yl)benzoyl]piperidin-4-yl}-3-[4-(7H-pyrrolo[2,3-d]pyrimidin-4-yl)-1H-pyrazol-1-yl]azetidin-3-yl}acetonitrile] | 2.5 |
| N#CCC1(n2cc(-c3ncnc4[nH]ccc34)cn2)CN(C2CCN(C(=O)c3ccc(-c4cccnc4)cc3F)CC2)C1 [Example 120, {1-[1-(2-fluoro-4-pyridin-3-ylbenzoyl)piperidin-4-yl]-3-[4-(7H-pyrrolo[2,3-d]pyrimidin-4-yl)-1H-pyrazol-1-yl]azetidin-3-yl} acetonitrile] | 2.1 |
